Assay results as given in US8933221B2, “Hexahydropyrano[3,4-d][1,3]thiazin-2-amine compounds” (Pfizer Inc., priority 2011, dated 2015).

Protein sequences, listed by entry. Tags and fused reporters are not part of them. Residues count along the entry.
UniProt P56817, 46-501 limits assumed: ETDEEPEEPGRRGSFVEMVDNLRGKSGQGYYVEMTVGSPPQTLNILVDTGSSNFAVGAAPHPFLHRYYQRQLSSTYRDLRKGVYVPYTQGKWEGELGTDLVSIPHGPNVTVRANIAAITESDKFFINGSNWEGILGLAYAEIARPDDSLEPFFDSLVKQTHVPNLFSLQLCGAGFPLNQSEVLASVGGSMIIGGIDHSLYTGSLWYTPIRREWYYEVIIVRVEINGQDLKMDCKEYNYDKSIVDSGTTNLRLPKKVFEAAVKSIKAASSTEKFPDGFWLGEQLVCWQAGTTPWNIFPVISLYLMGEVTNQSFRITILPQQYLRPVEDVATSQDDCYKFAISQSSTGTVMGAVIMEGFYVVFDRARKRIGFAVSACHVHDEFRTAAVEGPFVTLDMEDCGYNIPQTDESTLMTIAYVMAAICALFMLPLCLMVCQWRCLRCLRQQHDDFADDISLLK

Target: BACE1 enzyme (Homo sapiens, UniProt P56817)
Assay: BACE1 cell-free assay (fluorescence polarization, synthetic APP substrate);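 also: soluble His-tagged BACE1 purified from transfected CHO-K1 cell media, biotinylated Oregon Green-labelled peptide substrate, 3 h at 37 °C, cleavage followed as change in fluorescence polarization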
Type: biochemical
Settings: geometric mean of 2-4 determinations; values marked b from a single determination

IC50: 13.8 µM
Compound: NC1=N[C@@]2(c3c(F)cccc3F)COCC[C@H]2CS1 (relative stereo) [Example 16, rel-(4aR,8aS)-8a-(2,6-Difluorophenyl)-4,4a,5,6,8,8a-hexahydropyrano[3,4-d][1,3]thiazin-2-amine]
